Measured values reported in PubChem BioAssay (EPA / NIEHS).
This is a selection; strong and weak results do not stand in their true shares. Records with an inconclusive call do not appear. Calls of active or inactive are those of the source. How the source made its calls, unless noted: active means hit-call score of the fitted dose curve at least 0.9, where 1 is the maximum; inactive means score below 0.9.

Amino acid sequences for entries named in this document (tags omitted).
UniProt P19793, whole entry: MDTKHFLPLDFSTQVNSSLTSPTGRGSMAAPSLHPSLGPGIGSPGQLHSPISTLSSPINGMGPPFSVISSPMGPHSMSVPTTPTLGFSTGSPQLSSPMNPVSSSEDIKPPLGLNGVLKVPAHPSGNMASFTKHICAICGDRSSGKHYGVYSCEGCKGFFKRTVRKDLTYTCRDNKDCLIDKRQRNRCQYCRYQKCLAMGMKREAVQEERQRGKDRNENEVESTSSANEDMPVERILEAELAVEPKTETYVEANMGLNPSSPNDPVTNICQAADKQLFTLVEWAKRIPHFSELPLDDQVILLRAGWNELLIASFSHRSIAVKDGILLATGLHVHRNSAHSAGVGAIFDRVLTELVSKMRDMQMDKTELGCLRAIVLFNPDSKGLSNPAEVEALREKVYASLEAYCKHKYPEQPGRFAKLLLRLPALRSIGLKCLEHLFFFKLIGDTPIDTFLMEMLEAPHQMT
UniProt P28702, whole entry: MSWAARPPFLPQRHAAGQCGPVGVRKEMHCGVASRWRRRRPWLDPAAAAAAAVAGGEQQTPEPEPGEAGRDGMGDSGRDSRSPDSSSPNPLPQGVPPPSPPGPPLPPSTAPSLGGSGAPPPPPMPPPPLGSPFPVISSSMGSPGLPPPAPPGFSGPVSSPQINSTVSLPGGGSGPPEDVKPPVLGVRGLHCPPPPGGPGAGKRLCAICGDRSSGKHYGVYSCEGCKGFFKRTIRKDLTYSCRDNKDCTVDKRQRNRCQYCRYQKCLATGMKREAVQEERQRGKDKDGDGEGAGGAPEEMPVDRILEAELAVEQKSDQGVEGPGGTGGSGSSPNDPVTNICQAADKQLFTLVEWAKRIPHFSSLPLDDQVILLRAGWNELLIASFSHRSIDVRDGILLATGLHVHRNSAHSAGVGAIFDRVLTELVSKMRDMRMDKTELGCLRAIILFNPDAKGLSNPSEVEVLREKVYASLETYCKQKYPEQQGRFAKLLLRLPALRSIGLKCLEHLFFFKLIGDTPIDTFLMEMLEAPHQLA
UniProt P16581, whole entry: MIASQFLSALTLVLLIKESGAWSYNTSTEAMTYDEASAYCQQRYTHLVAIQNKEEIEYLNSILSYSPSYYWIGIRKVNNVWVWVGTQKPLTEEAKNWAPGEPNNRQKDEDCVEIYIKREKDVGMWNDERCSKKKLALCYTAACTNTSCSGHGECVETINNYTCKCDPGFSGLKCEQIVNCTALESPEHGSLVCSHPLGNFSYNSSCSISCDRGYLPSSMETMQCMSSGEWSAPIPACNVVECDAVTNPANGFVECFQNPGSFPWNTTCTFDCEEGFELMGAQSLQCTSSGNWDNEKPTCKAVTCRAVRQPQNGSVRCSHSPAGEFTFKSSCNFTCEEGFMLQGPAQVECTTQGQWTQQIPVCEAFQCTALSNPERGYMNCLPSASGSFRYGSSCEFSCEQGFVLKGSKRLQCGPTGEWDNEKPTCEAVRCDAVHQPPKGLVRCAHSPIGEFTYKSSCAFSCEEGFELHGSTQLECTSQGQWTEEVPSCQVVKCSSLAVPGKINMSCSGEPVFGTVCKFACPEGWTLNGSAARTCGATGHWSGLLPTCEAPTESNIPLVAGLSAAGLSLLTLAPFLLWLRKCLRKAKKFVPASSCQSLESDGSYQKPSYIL
UniProt Q92753, whole entry: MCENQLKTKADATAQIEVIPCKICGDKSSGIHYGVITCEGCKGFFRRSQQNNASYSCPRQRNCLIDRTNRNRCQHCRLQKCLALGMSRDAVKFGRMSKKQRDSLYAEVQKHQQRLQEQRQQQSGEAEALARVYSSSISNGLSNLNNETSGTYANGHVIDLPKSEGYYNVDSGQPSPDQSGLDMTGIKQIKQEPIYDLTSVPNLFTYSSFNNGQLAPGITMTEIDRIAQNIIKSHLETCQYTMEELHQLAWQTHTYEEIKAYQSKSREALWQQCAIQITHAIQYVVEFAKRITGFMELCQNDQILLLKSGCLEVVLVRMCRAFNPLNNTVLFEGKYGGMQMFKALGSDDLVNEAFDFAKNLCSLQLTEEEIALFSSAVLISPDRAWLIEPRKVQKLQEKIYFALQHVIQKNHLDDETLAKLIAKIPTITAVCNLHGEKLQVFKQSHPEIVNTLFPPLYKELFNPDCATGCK
UniProt P10827, whole entry: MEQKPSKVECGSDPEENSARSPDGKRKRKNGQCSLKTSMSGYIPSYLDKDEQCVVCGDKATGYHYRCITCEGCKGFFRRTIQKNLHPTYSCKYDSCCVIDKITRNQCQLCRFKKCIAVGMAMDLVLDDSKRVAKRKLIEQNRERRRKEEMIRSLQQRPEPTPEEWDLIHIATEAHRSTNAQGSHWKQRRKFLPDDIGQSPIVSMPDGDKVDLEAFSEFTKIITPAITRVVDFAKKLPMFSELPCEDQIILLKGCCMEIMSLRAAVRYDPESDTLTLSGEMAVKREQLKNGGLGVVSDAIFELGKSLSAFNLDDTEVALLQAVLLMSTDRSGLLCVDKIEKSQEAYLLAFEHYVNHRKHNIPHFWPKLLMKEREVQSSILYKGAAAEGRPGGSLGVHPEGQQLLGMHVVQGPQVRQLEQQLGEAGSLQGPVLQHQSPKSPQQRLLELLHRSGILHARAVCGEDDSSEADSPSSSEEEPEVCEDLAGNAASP
UniProt P51449, whole entry: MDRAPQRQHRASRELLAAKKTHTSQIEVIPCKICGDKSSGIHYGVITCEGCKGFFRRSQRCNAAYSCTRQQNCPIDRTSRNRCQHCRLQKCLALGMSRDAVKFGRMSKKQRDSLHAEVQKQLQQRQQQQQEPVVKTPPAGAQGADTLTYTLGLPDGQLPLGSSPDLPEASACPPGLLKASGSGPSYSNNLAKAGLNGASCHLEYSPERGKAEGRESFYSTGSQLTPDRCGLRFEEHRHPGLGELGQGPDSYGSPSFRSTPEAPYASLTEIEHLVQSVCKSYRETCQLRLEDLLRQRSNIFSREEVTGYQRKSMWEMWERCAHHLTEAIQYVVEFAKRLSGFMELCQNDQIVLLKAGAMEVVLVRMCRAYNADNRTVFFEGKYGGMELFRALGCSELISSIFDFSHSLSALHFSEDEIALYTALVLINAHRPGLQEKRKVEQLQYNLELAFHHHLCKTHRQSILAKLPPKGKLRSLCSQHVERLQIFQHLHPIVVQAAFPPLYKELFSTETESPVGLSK

How the values were obtained:
[1] = target: Retinoic acid receptor RXR-alpha (Homo sapiens) (UniProt P19793); experiment: ATG_RXRa_TRANS: Attagene TRANS-FACTORIAL HepG2 Assay for human Retinoid X Receptor alpha (RXRa) (AID 2283012; active means hit-call score of the fitted dose curve at least 0.9, where 1 is the maximum)
Protocol: (§1) ATG_TRANS is a cell-based, multiplexed-readout assay that uses HepG2, a human liver cell line, with measurements taken at 24 hours after chemical dosing in a 24-well plate.ATG_RXRa_TRANS is one of 30 assay component(s) measured or calculated from the ATG_TRANS assay. It is designed to make measurements of mRNA induction, a form of inducible reporter, as detected with fluorescence intensity signals by Reverse transcription polymerase chain reaction (RT-PCR) and Capillary electrophoresis technology.Data from the assay component ATG_RXRa_TRANS was analyzed into 1 assay endpoint. This assay endpoint, ATG_RXRa_TRANS, was analyzed in the positive analysis fitting direction relative to DMSO as the negative control and baseline of activity. Using a type of inducible reporter, measures of mRNA for gain-of-signal activity can be used to understand the reporter gene at the transcription factor-level as they relate to the gene RXRA. Furthermore, this assay endpoint can be referred to as a primary readout, because this assay has produced multiple assay endpoints where this one serves a reporter gene function. To generalize the intended target to other relatable targets, this assay endpoint is annotated to the nuclear receptor intended target family, where the subfamily is non-steroidal.
(§2) Human liver HepG2 cells are transiently transfected with multiple reporter transcription units (MRTUs) in 6-well plates using FuGene 6 reagent (Roche; 3 ml FuGene/1 mg DNA). The MRTU constructs are regulated by a cis-regulating element (promoter). […] A major difference between the CIS and TRANS system is that in CIS activities of endogenous TFs are measured, whereas the TRANS assay evaluates changes in activities of exogenous, chimeric NR-Gal4 proteins. […] At the end of 24 hour incubation, total RNA was isolated using TriZol reagent (Invitrogen). The isolated RNA is then reverse-transcribed using oligo(dT) primer and Mo-MLV reverse transcriptase (Invitrogen) with DNAse I (Ambion) treatment for 30 min. The one-tenth of the produced cDNA was amplified by PCR using Taq DNA polymerase (Invitrogen) and two reporter sequence-specific primers. The PCR products were fluorescently labeled by primer extension with 6-arboxyfluorescein (6-FAM) 5'-labeled reporter sequence-specific primer (2 min at 95 C, 20 s at 68 C and 10 min at 72 C) and these products were digested with 5U of HpaI (New England Biolabs) for 2h at 37 C. The fragments were purified using Qiaquick PCR columns (Qiagen), analyzed on an ABI 3130xL genetic analyzer (Applied Biosystems) with peak positions identified by using a set of X-rhodamine (ROX)-labeled MapMarker1000 molecular weight standards (BioVentures). The raw capillary electrophoresis data was processed using Attagraph software (Attagene).

[2] = target: human Retinoid X Receptor beta (RXRb), RXRB (gene 6257) (UniProt P28702); experiment: ATG_RXRb_TRANS: Attagene TRANS-FACTORIAL HepG2 Assay for human Retinoid X Receptor beta (RXRb) (AID 2283013; active means hit-call score of the fitted dose curve at least 0.9, where 1 is the maximum)
Procedure, shortened: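 HepG2 cells were transiently transfected with multiplexed GAL4-UAS reporters and a chimeric RXRb-Gal4 construct, then exposed for 24 h. Reporter mRNA was quantified by RT-PCR, FAM labeling, HpaI digestion and capillary electrophoresis; gain of signal was scored against DMSO.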

[3] = read-out: E-selectin (Homo sapiens) (UniProt P16581); experiment: BSK_3C_Eselectin: BioMAP Diversity Plus: 3C Assay for Eselectin Biomarker Activity (AID 2283015); conditions: actives raise or lower the signal; primary human endothelial cells (HUVEC)
Procedure, shortened: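 HUVEC, 3C stimulation; compound exposure 24 h; E-selectin by ELISA; gain- or loss-of-signal fitted bidirectionally vs DMSO baseline.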

[4] = read-out: Interleukin-1 alpha (IL1a), IL1A (gene 3552); experiment: BSK_BE3C_IL1a: BioMAP Diversity Plus: BE3C Assay for Interleukin-1 alpha (IL1a) Biomarker Activity (AID 2283016); conditions: actives raise or lower the signal; primary human bronchial epithelial cells
Procedure, shortened: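 Human primary bronchial epithelial cells, 24 h chemical exposure; IL-1a quantified by ELISA, fitted bidirectionally against DMSO. Cytotoxicity assessed in parallel by SRB total-protein staining at the time of measurement.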

[5] = read-out: Monocyte Chemoattractant Protein-1 (MCP1), CCL2 (gene 6347); experiment: BSK_3C_MCP1: BioMAP Diversity Plus: 3C Assay for Monocyte Chemoattractant Protein-1 (MCP1) Biomarker Activity (AID 2283017); conditions: actives raise or lower the signal; primary human endothelial cells (HUVEC)
Procedure, shortened: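 HUVEC, 3C system; 24 h chemical exposure; MCP-1 by ELISA; bidirectional curve fit vs DMSO baseline.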

[6] = read-out: Monocyte Chemoattractant Protein-1 (MCP1), CCL2 (gene 6347); experiment: BSK_4H_MCP1: BioMAP Diversity Plus: 4H Assay for Monocyte Chemoattractant Protein-1 (MCP1) Biomarker Activity (AID 2283018); conditions: actives raise or lower the signal; primary human endothelial cells (HUVEC)
Procedure, shortened: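 Human umbilical vein endothelial cells (4H system) exposed to chemicals for 24 h in 96-well format. MCP-1 measured by ELISA; bidirectional fitting against DMSO, with SRB total-protein staining in parallel cultures for cytotoxicity.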

[7] = read-out: Human Leukocyte Antigen - DR isotype (HLADR), HLA-DRA (gene 3122); experiment: BSK_3C_HLADR: BioMAP Diversity Plus: 3C Assay for Human Leukocyte Antigen - DR isotype (HLADR) Biomarker Activity (AID 2283019); conditions: actives raise or lower the signal; primary human endothelial cells (HUVEC)
Procedure, shortened: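 HUVEC, 3C stimulation, 24 h post-dose; HLA-DR by ELISA; bidirectional curve fit vs DMSO baseline; gain or loss of signal scored.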

[8] = target: human RAR-related Orphan Receptor beta (RORb), RORB (gene 6096) (UniProt Q92753); experiment: ATG_RORb_TRANS: Attagene TRANS-FACTORIAL HepG2 Assay for human RAR-related Orphan Receptor beta (RORb) (AID 2283010; active means hit-call score of the fitted dose curve at least 0.9, where 1 is the maximum)
Protocol: as §1, with “plate.ATG_RORb_TRANS” for “plate.ATG_RXRa_TRANS”, “ATG_RORb_TRANS” for “ATG_RXRa_TRANS”, “ATG_RORb_TRANS,” for “ATG_RXRa_TRANS,”, “RORB.” for “RXRA.”, “orphan.” for “non-steroidal.”
as §2, with “The raw capillary electrophoresis data was processed using Attagraph software (Attagene).” left out

[9] = target: human Thyroid Receptor alpha (THRa1), THRA (gene 7067) (UniProt P10827); experiment: ATG_THRa1_TRANS: Attagene TRANS-FACTORIAL HepG2 Assay for human Thyroid Receptor alpha (THRa1) (AID 2283014; active means hit-call score of the fitted dose curve at least 0.9, where 1 is the maximum)
Procedure, shortened: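 Transient HepG2 transfection, NR-Gal4 chimera driving GAL4-UAS reporters; 24 h compound exposure; total RNA, oligo(dT) RT, PCR, fluorescent primer extension, capillary electrophoresis. Upward direction vs DMSO control.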

[10] = target: human RAR-related Orphan Receptor gamma (RORg), RORC (gene 6097) (UniProt P51449); experiment: ATG_RORg_TRANS: Attagene TRANS-FACTORIAL HepG2 Assay for human RAR-related Orphan Receptor gamma (RORg) (AID 2283011; active means hit-call score of the fitted dose curve at least 0.9, where 1 is the maximum)
Procedure, shortened: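 Transient MRTU transfection of HepG2 (TRANS format, exogenous NR-Gal4 chimera). 24 h dosing. Total RNA → oligo(dT) RT → PCR → 6-FAM labelling → HpaI cut → CE. Gain vs DMSO.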

Measured: AC50

COc1ccc([N+](=O)[O-])cc1[N+](=O)[O-]
inactive: [1] | [2]

Cc1c([N+](=O)[O-])cccc1[N+](=O)[O-]
inactive: [3] | [4] | [5] | [6] | [7]

Cc1ccc([N+](=O)[O-])c([N+](=O)[O-])c1
active: [3] 8.47 µM | [7] 20 µM
not listed: [9] | [10]
inactive: all other assays above

Cc1ccc([N+](=O)[O-])cc1[N+](=O)[O-]
not listed: [2] | [8] | [10]
inactive: all other assays above

O=[N+]([O-])OCC(CO[N+](=O)[O-])(CO[N+](=O)[O-])CO[N+](=O)[O-]
inactive: [8] | [1] | [2]

CN(C)CCCl
inactive: [10] | [1] | [9]

N#CBr
inactive: [1] | [9]

COP(C)(=O)OC
inactive: [8] | [10] | [2]

CC(C)OP(C)(=O)OC(C)C
active: [5] 20 µM
not listed: [1] | [8] | [9]
inactive: all other assays above

CC(C)N(CCO)C(C)C
inactive: [10] | [2]

Cc1cccc([N+](=O)[O-])c1[N+](=O)[O-]
not listed: [7] | [10]
inactive: all other assays above

O=[N+]([O-])c1cccc([N+](=O)[O-])c1
inactive: [9] | [3] | [4] | [5] | [6] | [7]
